Values joined by “and” are separate entries in the source; they are usually repeats but may differ in a detail not shown here. Identical values can stand only once.
Experiments:
[1] = Induction of ovulation by human metastin in immature rat; format: in vivo
Procedure: (§1) Equine chorionic gonadotropin (eCG, serotropin, Dainippon Pharmaceutical Co., Ltd.) was dissolved in saline (Otsuka Pharmaceutical Co., Ltd.) in a concentration of 100 IU/mL. Using a 1 ml tuberculin syringe and a 26-gauge needle (both by Terumo Co., Ltd.), eCG was subcutaneously injected into the dorsal area of female Wistar rats of 23 days old after birth (Charles River Japan, Inc.) in a dose of 10 IU/animal, during 9:30 to 10:00 AM. Following the eCG injection, the animal was grouped after 47 to 48 hours as shown below, to which groups, each drug was injected.
Group A (5 rats): Human chorionic gonadotropin (hCG, gonadotropin, Dainippon Pharmaceutical Co., Ltd.) was dissolved in saline at 100 IU/mL and the solution was subcutaneously injected into the back in a dose of 20 IU/animal.
Group D (6 rats): Saline was subcutaneously injected into the back in a dose of 200 μL/animal.
After administration of the drugs described above, the animal was sacrificed by decapitation after 24 to 25 hours to recover blood, bilateral oviducts and uterus. In collecting blood, 90 μl of 10 KIU/ml aprotinin solution (Trasylol, Bayer) containing 3 mg/ml EDTA had been previously filled in a tube for recovery to prevent blood clotting. After blood recovery, the blood was thoroughly blended and the mixture was centrifuged at 2,000 G for 25 minutes. […]
The number of oocytes was counted as follows.
(§2) Where retention of oocytes in the oviducal ampulla was confirmed by stereomicroscopic observation of the oviduct, the ampulla was punctured with a syringe with 27-gauge needle for syringe (Terumo) to retrieve the oocytes. After granulosa cells surrounding the oocytes were removed by trypsin treatment, the number of oocytes was counted. […]
The level of estradiol contained in the plasma collected from the rats shown in TABLE 22 was determined by radioimmunoassay (DPC-Estradiol Kit; Diagnostic Products Corporation).
The level of progesterone contained in plasma was determined by radioimmunoassay (DPC.Progesterone; Diagnostic Products Corporation).

[2] = Induction of ovulation in immature rat using metastin derivatives; format: in vivo; conditions: eCG-primed immature female Wistar rats; Group A, s.c. 20 IU/animal
Procedure: as §1, with “9:00” for “9:30”, “injected. […]” for “injected.”
The number of oocytes was counted by referring to the method described in Eur. J. Endocrinol., 138, 594-600 (1998).
as §2, with “a” for “a syringe with”
The blood estradiol level was measured by radioimmunoassay (DPC.Estradiol Kit, Iatron, Inc.).
The blood progesterone level was measured by radioimmunoassay (DPC.Progesterone, Iatron, Inc.).

hCG: Human chorionic gonadotropin (hCG, gonadotropin, Dainippon Pharmaceutical Co., Ltd.)
Average of Ovulation (number of oocytes) ([1]; Group A: hCG 20 IU/animal s.c., immature rat, 5 rats): 37.6 | number of oocytes, individual rat ([1]; Group A: hCG 20 IU/animal s.c., immature rat, 24 to 25 hours after administration): 36 and 35 (2×) and 40 and 42 | number of oocytes in average per rat ([1]; eCG-primed immature female Wistar rats, Group A, s.c. 20 IU/animal): 37.6 oocytes | number of oocytes in average per rat [2]: 38.0 oocytes
